From patent US11634743B2, “Coupled, self-sufficient biotransformation of chenodeoxcholic acid to ursodeoxycholic acid and novel enzyme mutants applicable in said process” (Pharmazell GmbH, priority 2016, dated 2023)

The chains behind the UniProt entries cited, without tags or fusion partners. Where a name states a change or a piece, a line headed by the entry shows the natural chain unless it says otherwise. A line that says so, or that is headed by a name, gives the form on record, which may keep a tag or linker. Residues count along the entry.
UniProt P0AET8, 1-255 with tags or gaps D42G/I43R: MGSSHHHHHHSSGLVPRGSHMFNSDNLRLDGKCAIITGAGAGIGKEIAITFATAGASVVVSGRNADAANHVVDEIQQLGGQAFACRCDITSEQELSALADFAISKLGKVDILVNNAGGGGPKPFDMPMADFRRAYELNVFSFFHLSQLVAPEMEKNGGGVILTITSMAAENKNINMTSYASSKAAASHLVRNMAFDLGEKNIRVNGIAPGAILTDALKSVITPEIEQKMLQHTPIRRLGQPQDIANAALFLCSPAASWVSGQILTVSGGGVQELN
UniProt P0AET8, 1-255 with tags or gaps: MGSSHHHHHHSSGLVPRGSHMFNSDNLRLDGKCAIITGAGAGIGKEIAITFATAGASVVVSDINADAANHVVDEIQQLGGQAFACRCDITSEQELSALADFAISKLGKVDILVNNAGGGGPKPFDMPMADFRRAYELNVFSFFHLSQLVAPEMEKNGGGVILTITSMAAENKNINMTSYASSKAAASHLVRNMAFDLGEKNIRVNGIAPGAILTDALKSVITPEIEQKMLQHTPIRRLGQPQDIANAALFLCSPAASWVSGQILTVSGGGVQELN
UniProt A4ECA9: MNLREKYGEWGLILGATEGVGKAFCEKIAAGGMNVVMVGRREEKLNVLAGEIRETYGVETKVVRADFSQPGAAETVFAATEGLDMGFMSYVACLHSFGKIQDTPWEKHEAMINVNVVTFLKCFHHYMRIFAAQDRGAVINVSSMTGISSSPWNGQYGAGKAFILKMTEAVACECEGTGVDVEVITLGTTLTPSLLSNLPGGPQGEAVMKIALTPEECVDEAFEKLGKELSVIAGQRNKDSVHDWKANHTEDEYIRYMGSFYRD

Key:
[1] = target: 7α-HSDH D42G/I43R (Escherichia coli, UniProt P0AET8, D42G/I43R); test: Michaelis-Menten kinetics of 7α-HSDH D42G/I43R NADP-dependent mutant (E. coli), purified protein
[2] = target: 7α-HSDH (wildtype) (Escherichia coli, UniProt P0AET8); test: Michaelis-Menten kinetics of 7α-HSDH wildtype (E. coli), purified protein
[3] = target: 7β-HSDH obtainable from Collinsella aerofaciens DSM 3979 (Collinsella aerofaciens, UniProt A4ECA9); conditions: cited from earlier work; for vmax: 1 U = 1 μmol/min
[4] = apparent value, CDCA varied 10 μM-30 mM, constant 0.5 mM NADP^+
[5] = CDCA varied 10 μM-30 mM, constant 0.5 mM NAD^+
[6] = NADP^+ varied 10 μM-5 mM, 1 mM CDCA

**Q.** With C[C@H](CCC(=O)O)[C@H]1CC[C@H]2[C@@H]3[C@H](O)C[C@@H]4C[C@H](O)CC[C@]4(C)[C@H]3CC[C@]12C [listing 1 of 2 here] as the compound, how does the “substrate inhibition (Michaelis-Menten graphs)” value ([1]; CDCA, compared with wildtype) read?
**A.** Its value is “inhibition is more pronounced”.

**Q.** And the vmax [1, 4]?
**A.** Its vmax is “^a) 167.8 ± 6.3 U/mg”.

**Q.** And the “substrate inhibition (Michaelis-Menten graphs)” value ([2]; CDCA)?
**A.** The value was “show a substrate inhibition for CDCA”.

**Q.** And the Km [2, 5]?
**A.** Its Km is 56.1 µM.

**Q.** And the vmax [2, 5]?
**A.** The vmax was 193.3 ± 7.9 U/mg.

**Q.** Which results are given for C[C@H](CCC(=O)O)[C@H]1CC[C@H]2[C@@H]3[C@H](O)C[C@@H]4C[C@H](O)CC[C@]4(C)[C@H]3CC[C@]12C [listing 2 of 2 here]?
**A.** Km [1, 4]: 328 µM; Ki ([2]; substrate inhibition, CDCA varied 10 μM-30 mM, constant 0.5 mM NAD^+): 2960 µM

**Q.** Which results are given for C[C@H](CCC(=O)O)[C@H]1CC[C@H]2[C@@H]3C(=O)C[C@@H]4CC(=O)CC[C@]4(C)[C@H]3CC(=O)[C@]12C?
**A.** vmax [3]: 28.33 U/mg protein; Km [3]: 9.23 µM; kcat [3]: 875.35 1 μmol/(μmol × min)

**Q.** Which results are given for NC(=O)c1ccc[n+]([C@@H]2O[C@H](COP(=O)([O-])OP(=O)(O)OC[C@H]3O[C@@H](n4cnc5c(N)ncnc54)[C@H](OP(=O)(O)O)[C@@H]3O)[C@@H](O)[C@H]2O)c1?
**A.** vmax [3]: 30.58 U/mg protein; kcat [3]: 944.95 1 μmol/(μmol × min); Km [1, 6]: 314 µM; vmax [1, 6]: 158.7 ± 7.2 U/mg

**Q.** With C[C@H](CCC(=O)O)[C@H]1CC[C@H]2[C@@H]3[C@@H](O)C[C@@H]4C[C@H](O)CC[C@]4(C)[C@H]3CC[C@]12C as the compound, how does the vmax [3] read?
**A.** The vmax was 38.17 U/mg protein.

**Q.** And the Km [3]?
**A.** Its Km is 6.23 µM.

**Q.** And the kcat [3]?
**A.** Its kcat is 1179.39 1 μmol/(μmol × min).
